Measurements taken from ChEMBL document CHEMBL4265950, “Discovery of furyl/thienyl β-carboline derivatives as potent and selective PDE5 inhibitors with excellent vasorelaxant effect” (Eur J Med Chem, 2018).

Sequences of proteins named here, by UniProt entry; tags and fusion partners are left off. A change or cut given only in a name is not applied to a line headed by its entry.
UniProt P27815: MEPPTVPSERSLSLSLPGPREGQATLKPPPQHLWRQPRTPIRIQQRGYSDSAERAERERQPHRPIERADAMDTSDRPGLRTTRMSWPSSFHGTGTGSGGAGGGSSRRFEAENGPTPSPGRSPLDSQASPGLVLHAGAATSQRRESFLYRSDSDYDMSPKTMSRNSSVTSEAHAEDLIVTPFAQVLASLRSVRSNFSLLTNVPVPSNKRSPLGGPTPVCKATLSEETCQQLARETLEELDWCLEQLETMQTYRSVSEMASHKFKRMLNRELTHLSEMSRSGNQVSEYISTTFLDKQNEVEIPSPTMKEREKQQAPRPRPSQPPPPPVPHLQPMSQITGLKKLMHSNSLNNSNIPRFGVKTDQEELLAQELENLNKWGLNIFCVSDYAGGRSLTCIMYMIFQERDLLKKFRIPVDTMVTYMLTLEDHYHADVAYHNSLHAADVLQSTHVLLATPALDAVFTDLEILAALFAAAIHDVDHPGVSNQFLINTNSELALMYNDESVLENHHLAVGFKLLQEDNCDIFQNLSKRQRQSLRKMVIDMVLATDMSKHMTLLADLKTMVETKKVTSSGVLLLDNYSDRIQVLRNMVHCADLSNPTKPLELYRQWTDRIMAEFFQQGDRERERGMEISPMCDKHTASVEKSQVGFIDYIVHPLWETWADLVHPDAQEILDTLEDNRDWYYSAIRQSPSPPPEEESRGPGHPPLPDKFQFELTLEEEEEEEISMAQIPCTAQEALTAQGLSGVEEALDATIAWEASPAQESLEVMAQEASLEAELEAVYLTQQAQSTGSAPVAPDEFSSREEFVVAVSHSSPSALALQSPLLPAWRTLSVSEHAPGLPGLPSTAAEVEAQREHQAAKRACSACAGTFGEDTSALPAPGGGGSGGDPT

Target: 3',5'-cyclic-AMP phosphodiesterase 4A (Homo sapiens, UniProt P27815)
Assay: Inhibition of full length recombinant human N-terminal GST-tagged PDE4A1A expressed in baculovirus infected sf9 cells using FAM-cyclic-3',5-AMP as substrate after 1 hr by fluorescence polarization assay
Method in brief: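 Fluorescence polarization assay run at 25 °C for 60 min in 40 mM MOPS pH 7.5, 0.5 mM EDTA, 15 mM MgCl2, 0.15 mg/mL BSA, 1 mM DTT, 0.05% ProClin 200. Contained 15 ng/mL PDE isoform and 100 nM FAM-cGMP or FAM-cAMP according to isoform, with 1% DMSO final. Binding agent added for 1 h at 25 °C; read at […] nm. IC50 from normalized nonlinear dose-response fit.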

Compound: CN1CC(=O)N2[C@H](c3ccc4c(c3)OCO4)c3[nH]c4ccccc4c3C[C@@H]2C1=O
- IC50: > 10 µM
